# Data: patent publication US20230346796A1 (priority 2010, published 2023)
# Tests used:
# [1] = tested on: healthy volunteers and patients undergoing a colonoscopy; test: MOAA/S pharmacodynamic analysis of CNS 7056 (sedation, simpler model); assay type: in vivo, human
# patients = test: Study CNS 7056-003 (single doses of CNS 7056 without fentanyl); details: single doses 0.1 to 0.2 mg/kg without concomitant fentanyl
# [2] = tested on: patients undergoing a colonoscopy; test: Study CNS 7056-002 (Phase Ib, CNS 7056 with fentanyl, colonoscopy)
compound,measurement,setting,value
"COC(=O)CC[C@@H]1N=C(c2ccccn2)c2cc(Br)ccc2-n2c(C)cnc21 [CNS 7056, 3-[(4S)-8-bromo-1-methyl-6-(2-pyridinyl)-4H-imidazo[1,2-a][1,4]benzodiazepin-4-yl] propionic methyl ester]","EC50, theta (RSE%)","[1]; MOAASALL01S, combined data sets",0.349 (4.35) µg/ml
same,"EC50, theta (RSE%)","[1]; MOAASALL09S, fentanyl dose as covariate",0.38 (7.68) µg/ml
same,"EC50, theta (RSE%)","[1]; MOAASALL18S, scope effect",0.342 (4.38) µg/ml
same,"EC50, theta (RSE%)","[1]; MOAASALL21S, additional stimuli 1 min",0.336 (4.34) µg/ml
same,"EC50, theta (RSE%)","[1]; MOAASALL22S, additional stimuli 1 min, size of spike taken into account",0.336 (4.31) µg/ml
same,"EC50, theta (RSE%)","[1]; MOAASALL29S, scope effect, stimuli 1 / 2 min",0.323 (4.45) µg/ml
same,"EC50, theta (RSE%)","[1]; MOAASALL31S, scope effect, stimuli 1 / 2 min",0.323 (4.42) µg/ml
same,"EC50, theta (RSE%)","[1]; MOAASALL32S, scope effect, stimuli 1 / 2 min",0.323 (4.48) µg/ml
same,"EC50, theta (RSE%)","[1]; MOAASALL33S, scope effect with IIV",0.342 (4.41) µg/ml
same,EC50 in the absence of fentanyl,[1]; model MOAASALL05S,0.364 µg/mL
same,EC50 in the presence of fentanyl,[1]; model MOAASALL05S,0.338 µg/mL
same,patients with sufficient sedation,patients,32-64%
same,related AESIs (adverse events of special interest),"[2]; Phase Ib study, 45 subjects",37
same,Success rate n/N (%),"[2]; combined success rate of 2 highest doses, Phase Ib (Study CNS7056-002)",24/29 (82.8%)
